Here are results for 1 compound from patent publication US11897863B2, “Indazole amine derivative, preparation method therefor and medical use thereof” (ZHEJIANG HISUN PHARMACEUTICAL CO., LTD., priority 2018, dated 2024).

This data set can be described thus: Solubility test in phosphate buffer solution (PBS, pH7.4). It is filed as physicochemical. To be noted: PBS pH 7.4, room temperature, LC-UV. The protocol: 1.5 mg of the test compound was taken, and PBS was added thereto to prepare the test solution with theoretical concentration of 2 mg·mL^−1. The test solution was ultrasonicated for 10 min, and rotated on a rotating tray at room temperature for at least 8 h. After the rotation treatment, the test solution was ultrasonicated for 10 min and centrifuged at 13000 rpm for 15 min. 100 μL of supernatant was transferred to a 0.6 mL new tube for spinning and rinsing for 5 min. 500 μL of supernatant was transferred into the above rinsed 0.6 mL tube. Then the tube was centrifuged at 13000 rpm for 15 min, and the supernatant was taken (or diluted) for analysis by LC-UV. Sample concentration was quantified by standard curve fitting (3 points).

With `CN(C)CCn1cc2cc(NC(=O)c3cccc(C(F)(F)F)n3)c(C(C)(C)O)cc2n1` [Compound 1, N-(2-(2-(dimethylamino)ethyl)-6-(2-hydroxypropan-2-yl)-2H-indazol-5-yl)-6-(trifluoromethyl)pyridin-2-carboxamide], the “Solubility in phosphate buffer solution (PBS, pH 7.4)” value was found to be 602 uM.
